Data on one compound can be found in US8497287B2, “Aminotetralin compounds as mu opioid receptor antagonists” (priority 2007, dated 2013).

Protein sequences, listed by entry. Tags and fused reporters are not part of them.
UniProt P35372, whole entry: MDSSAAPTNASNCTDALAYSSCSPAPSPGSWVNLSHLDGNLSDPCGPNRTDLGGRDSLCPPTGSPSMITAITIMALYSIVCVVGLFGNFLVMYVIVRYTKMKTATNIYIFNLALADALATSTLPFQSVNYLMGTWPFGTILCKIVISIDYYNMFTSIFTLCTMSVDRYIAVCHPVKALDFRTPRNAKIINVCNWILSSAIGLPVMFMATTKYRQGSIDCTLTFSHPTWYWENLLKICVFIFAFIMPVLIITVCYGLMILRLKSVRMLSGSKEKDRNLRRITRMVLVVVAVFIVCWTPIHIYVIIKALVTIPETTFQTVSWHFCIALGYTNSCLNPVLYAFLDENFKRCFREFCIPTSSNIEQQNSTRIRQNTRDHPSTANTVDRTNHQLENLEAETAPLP

This test has as its target human mu opioid receptor (Homo sapiens, UniProt P35372). The settings on record: [3H]-Diprenorphine 0.5 nM, CHO-K1 membranes; tested form: TFA salt (by the procedure of Example 22).

Turning to `CCC1(CC)c2cc(C(N)=O)ccc2CC(OC)C1NCCCCCCC(N)=O` (stereo not shown), the “pKi value at the human mu opioid receptor” value was found to be 9.1.
